{"source": "patent US20040076968A1", "about": "“Method for detecting pre-disposition to hepatotoxicity” (priority 2000, published 2004)", "key": {"[1]": {"system": "UGT1A6 gene", "assay": "Association of UGT1A6 polymorphisms with liver function abnormality in tolcapone-treated patients (case-control genotyping)", "format": "in vivo, human"}, "[2]": {"system": "UGT1A gene 3′UTR (exon 5)", "assay": "Association of the UGT1A 3′UTR polymorphism with liver function abnormality in tolcapone-treated patients (case-control genotyping)", "format": "in vivo, human"}}}
{"smiles": "Cc1ccc(C(=O)c2cc(O)c(O)c([N+](=O)[O-])c2)cc1", "note": "[tolcapone]", "values": [{"measurement": "Relative Risk", "setting": "[1]; UGT1A6_232 Ser7Ala, Allele G", "value": 1.41}, {"measurement": "Relative Risk", "setting": "[1]; UGT1A6_232 Ser7Ala, Allele T", "value": 0.64}, {"measurement": "Relative Risk", "setting": "[1]; UGT1A6_528 A/G, Allele A", "value": 0.55}, {"measurement": "Relative Risk", "setting": "[1]; UGT1A6_528 A/G, Allele G", "value": 1.52}, {"measurement": "Relative Risk", "setting": "[1]; UGT1A6_754 Thr181Ala, Allele Ala", "value": 1.50}, {"measurement": "Relative Risk", "setting": "[1]; UGT1A6_754 Thr181Ala, Allele Thr", "value": 0.57}, {"measurement": "Relative Risk", "setting": "[1]; UGT1A6_765 Arg184Ser, Allele Arg", "value": 0.58}, {"measurement": "Relative Risk", "setting": "[1]; UGT1A6_765 Arg184Ser, Allele Ser", "value": 1.47}, {"measurement": "Relative Risk", "setting": "[2]; UGT1A-3′_908, Allele C", "value": 1.51}, {"measurement": "Relative Risk", "setting": "[2]; UGT1A-3′_908, Allele G", "value": 0.61}]}
